Drawing on BindingDB's records for US8969358, this text covers Ki for twelve molecules.

The target in assay [1] is Mu-type opioid receptor (Homo sapiens, UniProt P35372). Kind of assay: Binding Assay. The conditions noted are these: pH 7.4.
Assay [2] deals with Kappa-type opioid receptor (Homo sapiens, UniProt P41145). Kind of assay: Binding Assay. To be noted: pH 7.4.

In assay [1], `COc1ccc2c3c1O[C@H]1[C@@]4(OC)CC[C@@]5(C[C@@H]4CNC(=O)[C@H](C)N)[C@@H](C2)N(CC2CC2)CC[C@]315` registered a Ki of 190 nM.
In the case of `COC12CC[C@@]3(C[C@@H]1CNC(=O)CCC(=O)O)[C@H]1Cc4ccc(O)c5c4[C@@]3(CCN1CC1CC1)[C@H]2O5`, the Ki in assay [2] came to 2.62 nM.
The molecule `CO[C@]12CC[C@@]3(C[C@@H]1CNC(=O)[C@H](C)N)[C@H]1Cc4ccc(O)c5c4[C@@]3(CCN1CC1CC1)[C@H]2O5` yielded a Ki in assay [2] of 0.14 nM.
Molecule `CO[C@]12CC[C@@]3(C[C@@H]1CNC(=O)[C@H](CC(C)C)NC(C)=O)[C@H]1Cc4ccc(O)c5c4[C@@]3(CCN1CC1CC1)[C@H]2O5` showed a Ki in assay [2] of 0.35 nM.
Regarding `CO[C@]12CC[C@@]3(C[C@@H]1CNC(=O)[C@H](CC(=O)O)NC(C)=O)[C@H]1Cc4ccc(O)c5c4[C@@]3(CCN1CC1CC1)[C@H]2O5`, the Ki in assay [2] is 7.1 nM.
Still for that read-out and setting: the same measure for `CO[C@]12CC[C@@]3(C[C@@H]1CNC(=O)[C@H](CC(N)=O)NC(C)=O)[C@H]1Cc4ccc(O)c5c4[C@@]3(CCN1CC1CC1)[C@H]2O5`: 0.62 nM; for `CO[C@]12CC[C@@]3(C[C@@H]1CNC(=O)[C@H](C)NC(C)=O)[C@H]1Cc4ccc(O)c5c4[C@@]3(CCN1CC1CC1)[C@H]2O5`: 0.35 nM.
`CO[C@]12CC[C@@]3(C[C@@H]1CNC(=O)[C@@H](N)CC(C)C)[C@H]1Cc4ccc(O)c5c4[C@@]3(CCN1CC1CC1)[C@H]2O5` yielded a Ki in assay [2] of 0.06 nM.
Turning to `CO[C@]12CC[C@@]3(C[C@@H]1CNC(=O)[C@@H]1CCCN1C(C)=O)[C@H]1Cc4ccc(O)c5c4[C@@]3(CCN1CC1CC1)[C@H]2O5`, the Ki in assay [2] turned out to be 0.16 nM.
For `CC[C@H](C)[C@H](NC(C)=O)C(=O)NC[C@H]1C[C@@]23CC[C@]1(OC)[C@@H]1Oc4c(O)ccc5c4[C@@]12CCN(CC1CC1)[C@@H]3C5`, the Ki in assay [2] worked out at 0.4 nM.
Consider `CO[C@]12CC[C@@]3(C[C@@H]1CNC(=O)[C@H](Cc1c[nH]cn1)NC(C)=O)[C@H]1Cc4ccc(O)c5c4[C@@]3(CCN1CC1CC1)[C@H]2O5`, for which, in assay [2], the Ki amounted to 0.95 nM.
With `COC12CC[C@@]3(C[C@@H]1CNC(=O)CCc1nnn[nH]1)[C@H]1Cc4ccc(O)c5c4[C@@]3(CCN1CC1CC1)[C@H]2O5`, the inhibition constant (Ki) in assay [2] worked out at 1.15 nM.

The Ki is a measure of affinity in units of concentration, obtained from inhibition or displacement. Low readings indicate tighter binding, high ones weaker binding.
